Test results taken from patent publication US20160185875A1 (DCB USA, published 2016).
Each block holds one binder with its values, some of them ahead of it.

The chains behind the UniProt entries cited, without tags or fusion partners. Residues count along the entry.
UniProt P01375, 77-233 limits assumed: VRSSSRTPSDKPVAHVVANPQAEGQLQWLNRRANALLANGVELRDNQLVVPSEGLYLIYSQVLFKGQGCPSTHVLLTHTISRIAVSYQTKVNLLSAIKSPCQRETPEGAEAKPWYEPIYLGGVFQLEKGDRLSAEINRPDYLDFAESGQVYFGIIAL

Target: T1, TNF-α (UniProt P01375 77-233)
T1 construct: also called tumor necrosis factor-alpha
Test: ELISA on coated TNF-α, before MMP2 treatment (FIG. 10)

- antigen-binding capability (% of parent antibody): 31.5%
B1: IgG4 hinge/MMP2/infliximab (antibody)
light: ESKYGPPCPSCPGPLGVRDILLTQSPAILSVSPGERVSFSCRASQFVGSSIHWYQQRTNGSPRLLIKYASESMSGIPSRFSGSGSGTDFTLSINTVESEDIADYYCQQSHSWPFTFGSGTNLEVKRTVAAPSVFIFPPSDEQLKSGTASVVCLLNNFYPREAKVQWKVDNALQSGNSQESVTEQDSKDSTYSLSSTLTLSKADYEKHKLYACEVTHQGLSSPVTKSFNRGEC
heavy: not shown
notes: Uncleaved; also called IgG4 hinge/MMP2/anti-TNF-α antibody

- antigen-binding capability (% of parent antibody): 23.5%
B2: IgA2 hinge/MMP2/infliximab (antibody)
light: PVPPPPPCCHGPLGVRDILLTQSPAILSVSPGERVSFSCRASQFVGSSIHWYQQRTNGSPRLLIKYASESMSGIPSRFSGSGSGTDFTLSINTVESEDIADYYCQQSHSWPFTFGSGTNLEVKRTVAAPSVFIFPPSDEQLKSGTASVVCLLNNFYPREAKVQWKVDNALQSGNSQESVTEQDSKDSTYSLSSTLTLSKADYEKHKLYACEVTHQGLSSPVTKSFNRGEC
heavy: not shown
notes: Uncleaved; also called IgA2 hinge/MMP2/anti-TNF-α antibody
